# Source: patent US9694016B2 (Novartis AG, priority 2013, dated 2017)
# Chains of the proteins cited; added tags and fusions are not shown.
# UniProt P04049, whole entry Y340E/Y341E: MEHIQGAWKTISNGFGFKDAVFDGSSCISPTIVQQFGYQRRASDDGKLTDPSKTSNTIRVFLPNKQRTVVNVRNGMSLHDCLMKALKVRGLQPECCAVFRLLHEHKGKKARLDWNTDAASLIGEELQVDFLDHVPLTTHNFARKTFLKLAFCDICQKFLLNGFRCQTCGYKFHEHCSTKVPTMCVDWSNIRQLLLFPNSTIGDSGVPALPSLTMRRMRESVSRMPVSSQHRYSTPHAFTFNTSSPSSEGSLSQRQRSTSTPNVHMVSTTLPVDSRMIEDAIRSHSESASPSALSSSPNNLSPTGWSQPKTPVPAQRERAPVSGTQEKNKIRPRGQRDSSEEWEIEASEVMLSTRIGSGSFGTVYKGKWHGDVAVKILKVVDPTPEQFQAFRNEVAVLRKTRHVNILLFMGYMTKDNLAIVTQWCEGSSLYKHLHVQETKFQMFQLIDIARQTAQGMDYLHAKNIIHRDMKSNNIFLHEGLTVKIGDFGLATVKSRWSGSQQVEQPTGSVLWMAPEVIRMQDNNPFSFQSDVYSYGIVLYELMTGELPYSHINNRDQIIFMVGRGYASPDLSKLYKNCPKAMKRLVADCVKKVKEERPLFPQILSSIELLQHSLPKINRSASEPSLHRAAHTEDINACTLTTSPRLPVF
# Biological target: C-Raf FL (full-length C-Raf protein, Y340E and Y341E activating mutations) (Homo sapiens (Human), UniProt P04049, Y340E/Y341E)
# Type: biochemical
# Conditions: AlphaScreen, 60 min pre-incubation, 1 hour reaction; read-out: c-Raf FL IC-50
row,IC50 [nM],Compound
1,0.5,"Cc1ncc(NC(=O)c2ccnc(C(F)(F)F)c2)cc1-c1cc(N2CCOCC2)n2nccc2n1 [Example 798, N-(6-methyl-5-(7-morpholinopyrazolo[1,5-a]pyrimidin-5-yl)pyridin-3-yl)-2-(trifluoromethyl)isonicotinamide]"
2,0.8,"CCC(F)(F)c1cc(C(=O)Nc2cnc(C)c(-c3cc(N4CCOCC4)n4nccc4n3)c2)ccn1 [Example 800, 2-(1,1-difluoropropyl)-N-(6-methyl-5-(7-morpholinopyrazolo[1,5-a]pyrimidin-5-yl)pyridin-3-yl)isonicotinamide]"
3,0.9,"Cc1ncc(NC(=O)c2cnnc(C(F)(F)F)c2)cc1-c1cc(N2CCOCC2)n2nccc2n1 [Example 801, N-(6-methyl-5-(7-morpholinopyrazolo[1,5-a]pyrimidin-5-yl)pyridin-3-yl)-6-(trifluoromethyl)pyridazine-4-carboxamide]"
4,1,"Cc1ncc(NC(=O)c2ccnc(C3(C#N)CC3)c2)cc1-c1cc(N2CCOCC2)n2nccc2n1 [Example 802, 2-(1-cyanocyclopropyl)-N-(6-methyl-5-(7-morpholinopyrazolo[1,5-a]pyrimidin-5-yl)pyridin-3-yl)isonicotinamide]"
5,0.9,"Cc1ncc(NC(=O)c2ccnc(C(F)F)c2)cc1-c1cc(N2CCOCC2)n2nccc2n1 [Example 803, 2-(difluoromethyl)-N-(6-methyl-5-(7-morpholinopyrazolo[1,5-a]pyrimidin-5-yl)pyridin-3-yl)isonicotinamide]"
6,0.3,"Cc1ncc(NC(=O)c2cccc(C(F)F)c2)cc1-c1cc(N2CCOCC2)n2nccc2n1 [Example 804, 3-(difluoromethyl)-N-(6-methyl-5-(7-morpholinopyrazolo[1,5-a]pyrimidin-5-yl)pyridin-3-yl)benzamide]"
7,0.2,"Cc1ccc(NC(=O)c2ccnc(C(F)F)c2)cc1-c1cc(N2CCOCC2)n2nccc2n1 [Example 805, 2-(difluoromethyl)-N-(4-methyl-3-(7-morpholinopyrazolo[1,5-a]pyrimidin-5-yl)phenyl)isonicotinamide]"
8,0.6,Cc1ccc(NC(=O)c2ccnc(S(C)(=O)=O)c2)cc1-c1cc(N2CCOCC2)n2nccc2n1 [Example 806]
9,2.8,"Cc1ncc(NC(=O)c2ccnc(S(C)(=O)=O)c2)cc1-c1cc(N2CCOCC2)n2nccc2n1 [Example 807, N-(6-methyl-5-(7-morpholinopyrazolo[1,5-a]pyrimidin-5-yl)pyridin-3-yl)-2-(methylsulfonyl)isonicotinamide]"
10,0.3,"Cc1ncc(NC(=O)c2cc(C(F)(F)F)ccn2)cc1-c1cc(N2CCOCC2)n2nccc2n1 [Example 810, N-(6-methyl-5-(7-morpholinopyrazolo[1,5-a]pyrimidin-5-yl)pyridin-3-yl)-4-(trifluoromethyl)picolinamide]"
11,9,"Cc1ccc(NC(=O)c2cn(C)nc2C)cc1-c1cc2[nH]cnc2c(N2CCOCC2)n1 [Example 815, 1,3-dimethyl-N-(4-methyl-3-(4-morpholino-1H-imidazo[4,5-c]pyridin-6-yl)phenyl)-1H-pyrazole-4-carboxamide]"
12,13.2,"Cc1cc(C(=O)Nc2ccc(C)c(-c3cc4[nH]cnc4c(N4CCOCC4)n3)c2)n(C)n1 [Example 817, 1,3-dimethyl-N-(4-methyl-3-(4-morpholino-1H-imidazo[4,5-c]pyridin-6-yl)phenyl)-1H-pyrazole-5-carboxamide]"
13,1.1,"Cc1ccc(NC(=O)c2cc(C3CC3)nn2C)cc1-c1cc2[nH]cnc2c(N2CCOCC2)n1 [Example 818, 3-cyclopropyl-1-methyl-N-(4-methyl-3-(4-morpholino-1H-imidazo[4,5-c]pyridin-6-yl)phenyl)-1H-pyrazole-5-carboxamide]"
14,0.1,"Cc1ccc(NC(=O)c2cc(C3CC3)on2)cc1-c1cc2[nH]cnc2c(N2CCOCC2)n1 [Example 820, 5-cyclopropyl-N-(4-methyl-3-(4-morpholino-1H-imidazo[4,5-c]pyridin-6-yl)phenyl)isoxazole-3-carboxamide]"
15,0.7,"Cc1ccc(NC(=O)c2cccc(-c3nnco3)c2)cc1-c1cc2[nH]cnc2c(N2CCOCC2)n1 [Example 822, N-(4-methyl-3-(4-morpholino-1H-imidazo[4,5-c]pyridin-6-yl)phenyl)-3-(1,3,4-oxadiazol-2-yl)benzamide]"
16,0.2,"Cc1ccc(NC(=O)c2cccc(C(F)(F)F)c2)cc1-c1cc(N2CCOCC2)c2oc(=O)[nH]c2c1 [Example 827, N-(4-methyl-3-(7-morpholino-2-oxo-2,3-dihydrobenzo[d]oxazol-5-yl)phenyl)-3-(trifluoromethyl)benzamide]"
17,0.1,"Cc1ccc(NC(=O)c2cccc(C(F)(F)F)c2)cc1-c1nc(N2CCOCC2)c2[nH]ccc2n1 [Example 830, N-(4-methyl-3-(4-morpholino-5H-pyrrolo[3,2-d]pyrimidin-2-yl)phenyl)-3-(trifluoromethyl)benzamide]"
18,0.2,"Cc1ccc(NC(=O)c2cccc(C(F)(F)F)c2)cc1-c1nc(N2CCOCC2)c2cccnc2n1 [Example 833, N-(4-methyl-3-(4-morpholinopyrido[2,3-d]pyrimidin-2-yl)phenyl)-3-(trifluoromethyl)benzamide]"
19,0.2,"Cc1ccc(NC(=O)c2cccc(C(F)(F)F)c2)cc1-c1nc2c(c(N3CCOCC3)n1)CCNC2 [Example 834, N-(4-methyl-3-(4-morpholino-5,6,7,8-tetrahydropyrido[3,4-d]pyrimidin-2-yl)phenyl)-3-(trifluoromethyl)benzamide]"
20,0.6,"Cc1ccc(NC(=O)c2cccc(C(F)(F)F)c2)cc1-c1nc2c(c(N3CCOCC3)n1)CNCC2 [Example 835, N-(4-methyl-3-(4-morpholino-5,6,7,8-tetrahydropyrido[4,3-d]pyrimidin-2-yl)phenyl)-3-(trifluoromethyl)benzamide]"
21,0.1,"Cc1ccc(NC(=O)c2cccc(C(F)(F)F)c2)cc1-c1nc(N2CCOCC2)c2c(cnn2C)n1 [Example 837, N-(4-methyl-3-(1-methyl-7-morpholino-1H-pyrazolo[4,3-d]pyrimidin-5-yl)phenyl)-3-(trifluoromethyl)benzamide]"
22,0.3,"Cc1ccc(NC(=O)c2cccc(C(F)(F)F)c2)cc1-c1nc(N2CCOCC2)c2occc2n1 [Example 838, N-(4-methyl-3-(4-morpholinofuro[3,2-d]pyrimidin-2-yl)phenyl)-3-(trifluoromethyl)benzamide]"
23,0.3,"Cc1ccc(NC(=O)c2cccc(C(F)(F)F)c2)cc1-c1nc(N2CCOCC2)c2ncsc2n1 [Example 839, N-(4-methyl-3-(7-morpholinothiazolo[5,4-d]pyrimidin-5-yl)phenyl)-3-(trifluoromethyl)benzamide]"
24,0.2,"Cc1ccc(NC(=O)c2cccc(C(F)(F)F)c2)cc1-c1nc(N2CCOCC2)c2cnn(C)c2n1 [Example 840, N-(4-methyl-3-(1-methyl-4-morpholino-1H-pyrazolo[3,4-d]pyrimidin-6-yl)phenyl)-3-(trifluoromethyl)benzamide]"
25,0.3,"Cc1ccc(NC(=O)c2ccnc(C(C)C)c2)cc1-c1cc(N2CCOCC2)c2nccn2n1 [Example 842, 2-isopropyl-N-(4-methyl-3-(8-morpholinoimidazo[1,2-b]pyridazin-6-yl)phenyl)isonicotinamide]"
26,0.2,"Cc1ccc(NC(=O)c2ccnc(C(C)(F)F)c2)cc1-c1cc(N2CCOCC2)c2nccn2n1 [Example 843, 2-(1,1-difluoroethyl)-N-(4-methyl-3-(8-morpholinoimidazo[1,2-b]pyridazin-6-yl)phenyl)isonicotinamide]"
27,0.2,"Cc1ccc(NC(=O)c2ccnc(C(C)(C)C#N)c2)cc1-c1cc(N2CCOCC2)c2nccn2n1 [Example 844, 2-(2-cyanopropan-2-yl)-N-(4-methyl-3-(8-morpholinoimidazo[1,2-b]pyridazin-6-yl)phenyl)isonicotinamide]"
28,0.3,"Cc1ccc(NC(=O)c2ccnc(C(C)(C)C)c2)cc1-c1cc(N2CCOCC2)c2nccn2n1 [Example 845, 2-(tert-butyl)-N-(4-methyl-3-(8-morpholinoimidazo[1,2-b]pyridazin-6-yl)phenyl)isonicotinamide]"
29,0.2,"Cc1ccc(NC(=O)c2cccc(C(C)(C)C#N)c2)cc1-c1cc(N2CCOCC2)c2nccn2n1 [Example 846, 3-(2-cyanopropan-2-yl)-N-(4-methyl-3-(8-morpholinoimidazo[1,2-b]pyridazin-6-yl)phenyl)benzamide]"
30,0.04,"Cc1ccc(NC(=O)c2cccc(C(F)F)c2)cc1-c1cc(N2CCOCC2)c2nccn2n1 [Example 847, 3-(difluoromethyl)-N-(4-methyl-3-(8-morpholinoimidazo[1,2-b]pyridazin-6-yl)phenyl)benzamide]"

row,Compound,IC50 [nM]
1,"CCn1cc(C(=O)Nc2ccc(C)c(-c3cc4[nH]cnc4c(N4CCOCC4)n3)c2)c(C)n1 [Example 814, 1-ethyl-3-methyl-N-(4-methyl-3-(4-morpholino-1H-imidazo[4,5-c]pyridin-6-yl)phenyl)-1H-pyrazole-4-carboxamide]",3.1
2,"Cc1ccc(NC(=O)c2cn(C(C)C)nc2C)cc1-c1cc2[nH]cnc2c(N2CCOCC2)n1 [Example 816, 1-isopropyl-3-methyl-N-(4-methyl-3-(4-morpholino-1H-imidazo[4,5-c]pyridin-6-yl)phenyl)-1H-pyrazole-4-carboxamide]",1.6
3,"Cc1ccc(NC(=O)c2ccnc(C(C)(C)O)c2)cc1-c1cc2[nH]cnc2c(N2CCOCC2)n1 [Example 823, 2(2-hydroxypropan-2-yl)-N-(4-methyl-3-(4-morpholino-1H-imidazo[4,5-c]pyridin-6-yl)phenyl)isonicotinamide]",0.9

# Same assay, conditions: AlphaScreen, 60 min pre-incubation, reaction 1 hour at room temperature; read-out: c-Raf FL IC-50
row,IC50 [nM],Compound
1,0.9,"Cc1ccc(NC(=O)c2ccnc(C(F)(F)F)c2)cc1-c1cc(N2CCOCC2)c2nccn2c1 [Example 849, N-(4-methyl-3-(8-morpholinoimidazo[1,2-a]pyridin-6-yl)phenyl)-2-(trifluoromethyl)isonicotinamide]"

# Same assay, conditions: read-out: c-Raf FL IC-50
row,Compound,IC50 [nM]
1,"Cc1ccc(NC(=O)c2cccc(C(F)(F)F)c2)cc1-c1cn2ccnc2c(N2CCOC[C@H]2C)n1 [Example 825, (R)—N-(4-methyl-3-(8-(3-methylmorpholino)imidazo[1,2-a]pyrazin-6-yl)phenyl)-3-(trifluoromethyl)benzamide]",0.2
